{"sequences": {"note": "Sequences of proteins named here, by UniProt entry; tags and fusion partners are left off.", "UniProt P21452, whole entry": "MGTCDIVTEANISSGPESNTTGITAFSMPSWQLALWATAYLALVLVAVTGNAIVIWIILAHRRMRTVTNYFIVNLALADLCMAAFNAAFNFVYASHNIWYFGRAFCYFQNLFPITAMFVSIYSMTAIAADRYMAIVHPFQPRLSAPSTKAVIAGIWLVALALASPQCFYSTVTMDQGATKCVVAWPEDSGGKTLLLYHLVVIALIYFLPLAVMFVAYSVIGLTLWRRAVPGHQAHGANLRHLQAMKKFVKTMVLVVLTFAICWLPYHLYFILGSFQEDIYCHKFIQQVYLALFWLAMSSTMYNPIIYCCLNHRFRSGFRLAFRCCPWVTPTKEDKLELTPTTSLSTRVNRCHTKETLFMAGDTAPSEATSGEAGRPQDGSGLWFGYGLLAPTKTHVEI"}, "source": "ChEMBL document CHEMBL5715956", "about": "“Selective Targeting of Bromodomains of the Bromodomain-PHD Fingers Family Impairs Osteoclast Differentiation” (ACS Chem Biol, 2017)", "key": {"[1]": {"target": "T1, Substance-K receptor (Homo sapiens, UniProt P21452)", "experiment": "Inhibition of NK2 receptor (unknown origin)"}, "[2]": {"target": "T1, Substance-K receptor", "experiment": "Binding affinity to NK2 receptor (unknown origin) assessed as inhibition constant"}}}
{"smiles": "CCCC[C@H](NC(=O)[C@H](CC(C)C)NC(=O)CNC(=O)[C@@H](NC(=O)[C@H](Cc1ccccc1)NC(=O)[C@H](CO)NC(=O)[C@@H](N)CC(=O)O)C(C)C)C(N)=O", "values": [{"measurement": "IC50", "setting": "[1]", "result": 10, "unit": "nM"}, {"measurement": "Ki", "setting": "[2]", "result": 5.6, "unit": "nM"}]}
